{
  "source": "patent US9750756B2",
  "about": "“Celecoxib compositions” (Pfizer Inc., priority 1998, dated 2017)",
  "test": "Absorption, distribution, metabolism and elimination crossover study, capsule vs 14C-celecoxib suspension (Example 13)",
  "conditions": "healthy male subjects, 300 mg 14C-celecoxib",
  "data": [
    {"smiles": "Cc1ccc(-c2cc(C(F)(F)F)nn2-c2ccc(S(N)(=O)=O)cc2)cc1", "note": "[celecoxib, 4-[5-(4-methylphenyl)-3-(trifluoromethyl)-1H-pyrazol-1-yl]benzenesulfonamide]", "values": [
      {"measurement": "radioactive dose in either urine or feces", "result": "about 2.56%"}
    ]}
  ]
}
